Here are results for one molecule from paper PMC8419314, “Characterization of Compound-Specific, Concentration-Independent Biophysical Properties of Sodium Channel Inhibitor Mechanism of Action Using Automated Patch-Clamp Electrophysiology” (Frontiers in Pharmacology, 2021).

Amino acid sequences for entries named in this document (tags omitted).
UniProt P15390, whole entry: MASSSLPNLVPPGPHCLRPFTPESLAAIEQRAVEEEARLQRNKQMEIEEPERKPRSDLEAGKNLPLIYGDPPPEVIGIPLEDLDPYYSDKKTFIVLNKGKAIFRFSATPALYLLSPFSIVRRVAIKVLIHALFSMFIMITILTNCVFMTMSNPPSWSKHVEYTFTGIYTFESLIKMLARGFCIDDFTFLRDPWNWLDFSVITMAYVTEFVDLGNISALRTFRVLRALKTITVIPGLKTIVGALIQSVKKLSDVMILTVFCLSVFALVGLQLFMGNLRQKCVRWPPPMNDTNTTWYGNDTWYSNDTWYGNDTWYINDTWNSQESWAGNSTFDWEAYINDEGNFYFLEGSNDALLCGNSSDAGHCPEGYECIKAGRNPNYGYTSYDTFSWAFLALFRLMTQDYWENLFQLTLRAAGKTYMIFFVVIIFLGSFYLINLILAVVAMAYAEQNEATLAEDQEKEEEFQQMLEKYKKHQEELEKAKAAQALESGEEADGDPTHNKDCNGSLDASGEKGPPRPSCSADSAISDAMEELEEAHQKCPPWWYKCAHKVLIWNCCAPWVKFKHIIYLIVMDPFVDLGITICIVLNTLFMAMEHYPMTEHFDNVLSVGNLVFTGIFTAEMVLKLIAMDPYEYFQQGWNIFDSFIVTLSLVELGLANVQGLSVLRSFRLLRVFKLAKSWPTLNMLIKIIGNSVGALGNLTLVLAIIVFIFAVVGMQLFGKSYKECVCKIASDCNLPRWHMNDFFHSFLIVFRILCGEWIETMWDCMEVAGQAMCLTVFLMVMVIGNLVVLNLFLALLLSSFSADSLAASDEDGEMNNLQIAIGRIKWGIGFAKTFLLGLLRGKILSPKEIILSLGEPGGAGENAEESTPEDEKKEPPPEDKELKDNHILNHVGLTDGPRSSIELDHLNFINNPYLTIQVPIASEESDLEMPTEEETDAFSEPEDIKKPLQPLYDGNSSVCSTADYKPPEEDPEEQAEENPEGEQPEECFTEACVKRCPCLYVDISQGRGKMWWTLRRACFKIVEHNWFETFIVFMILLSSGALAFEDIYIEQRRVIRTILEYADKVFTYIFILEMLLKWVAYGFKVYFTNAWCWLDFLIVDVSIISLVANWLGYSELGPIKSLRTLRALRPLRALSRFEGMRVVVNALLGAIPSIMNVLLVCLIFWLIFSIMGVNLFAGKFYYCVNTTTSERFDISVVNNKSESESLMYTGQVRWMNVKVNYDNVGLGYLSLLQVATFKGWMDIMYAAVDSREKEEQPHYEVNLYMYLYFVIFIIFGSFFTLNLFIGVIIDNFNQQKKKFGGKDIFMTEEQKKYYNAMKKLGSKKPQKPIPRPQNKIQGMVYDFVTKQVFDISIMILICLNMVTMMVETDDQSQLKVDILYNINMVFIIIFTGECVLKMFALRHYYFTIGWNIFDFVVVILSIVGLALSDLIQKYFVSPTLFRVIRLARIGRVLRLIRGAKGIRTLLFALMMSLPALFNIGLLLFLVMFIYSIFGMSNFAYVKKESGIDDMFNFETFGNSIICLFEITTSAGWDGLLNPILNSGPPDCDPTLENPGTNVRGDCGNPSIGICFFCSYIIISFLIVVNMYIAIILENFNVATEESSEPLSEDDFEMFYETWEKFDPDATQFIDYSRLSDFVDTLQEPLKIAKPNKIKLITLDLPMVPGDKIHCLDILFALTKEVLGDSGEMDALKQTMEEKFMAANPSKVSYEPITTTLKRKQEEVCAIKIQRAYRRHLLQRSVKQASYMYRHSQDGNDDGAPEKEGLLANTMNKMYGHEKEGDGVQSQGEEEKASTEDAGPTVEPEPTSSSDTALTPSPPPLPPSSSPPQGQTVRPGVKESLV

Several values for one entry are separate records, joined by “and”; a condition that tells them apart may be missing. Identical values can stand only once. Like-named read-outs stand apart in the source and are kept apart here.

In one assay the test system is sodium channel. As to conditions: cited from earlier work.
In another assay the target is T1, rNaV1.4 channel (Rattus norvegicus, UniProt P15390).
T1 construct: expressed in transfected cells; host or cells: HEK 293
Nature of the assay: automated patch-clamp 17-pulse protocol (SDO, RFI, SSI), IonFlux Mercury, cell ensembles. The format is cell-based. On the procedure: Cell culture and electrophysiology were done as described in the accompanying paper ([Lukacs et al., 2021]). The recombinant rNaV1.4 channel-expressing cell line was generated as described before ([Lukacs et al., 2018]). Transfected HEK 293 cells were maintained in Dulbecco’s Modified Eagle Medium, high glucose supplemented with 10% v/v fetal bovine serum, 100 U/ml of penicillin/streptomycin, and 0.4 mg/ml Geneticin (Life Technologies, Carlsbad, CA). For experiments, cells were dissociated from culture dishes with Accutase (Corning), shaken in serum-free medium for 60 min at room temperature, then centrifuged, and resuspended into the extracellular solution to a concentration of 5 × 10^6 cells/mL. Voltage-clamp recordings were performed on an IonFlux Mercury instrument (Fluxion Biosciences). The composition of solutions (in mM) was: Intracellular solution: 50 CsCl, 10 NaCl, 60 CsF, 20 EGTA, and 10 HEPES; pH 7.2 (adjusted with 1 M CsOH). Extracellular solution: 140 NaCl, 4 KCl, 1 MgCl2, 2 CaCl2, 5 D-Glucose, and 10 HEPES; pH 7.4 (adjusted with 1 M NaOH). The osmolality of intra-and extracellular solutions was set to ∼320 and ∼330 mOsm, respectively. Data were sampled at 20 kHz, and filtered at 10 kHz. Experiments were carried out at room temperature.
Each zone consists of 8 separate sections, which are distinct functional units, containing 12 wells: one well for the cell suspension, one well for the waste, two cell “traps” (intracellular solution-filled wells under negative pressure to establish high resistance seals and then whole-cell configuration), and eight compound wells. […] Two kinds of microfluidic plates are manufactured: In single-cell plates, each cell trap contains a single hole and therefore catches a single cell. In “ensemble plates” there are 20 holes in each cell trap, and 20 cells are recorded simultaneously. […] From the 16 cell ensembles of each zone, we chose n = 6 ensembles for analysis.
We used a complex 17-pulse voltage protocol (Figure 1A), described in detail in the accompanying paper ([Lukacs et al., 2021]), which allowed the assessment of gating kinetics and gating equilibrium in the absence and the presence of inhibitor/modulator compounds. The protocol investigated the effect of different durations of depolarizations: 2.5, 7.5, 22.5, and 67.5 ms with 2.5 ms hyperpolarizing gaps between them; this section (pulses #1 to #5) is shown by different shades of green in Figure 1, and was named “state-dependent onset” (SDO). Next, pulses #6 to #12, as well as #1 investigated the effect of different durations of hyperpolarizations (1, 2, 4, 8, 16, 32, 64, and 498 ms, separated by 5 ms depolarizations) in the section shown by different shades of blue, and named “recovery from inactivation” (RFI). Finally, pulses #12 to #17 assessed the resting-inactivated equilibrium at different membrane potentials in the section named “steady-state inactivation” (SSI). The three sections were similar to protocols we used in previous studies ([Lukacs et al., 2018]; [Földi et al., 2021]).
In addition to automatic fitting, described in the accompanying paper ([Lukacs et al., 2021]), in this study we used a different approach to process SDO, RFI, and SSI data. […] For each of the 17 pulses peak amplitudes were measured after removing capacitive artifacts and subtracting the leak.

In the case of `Nc1nc2ccc(OC(F)(F)F)cc2s1` [Riluzole, riluzole], the IC50 with sodium channel (read-out: IC50 (10 Hz)) is 43 µM. Besides, the IC50 with sodium channel (read-out: IC50 (50 Hz)) was 0.9 µM. At rNaV1.4 channel, the KR/KI ratio was 242 and 242 ± 147; the micro-offset range was 2 to 10 ms; the micro-onset range was in the range of 1 to 10 ms; the “time for micro-offset to be complete” value is on record as at most 10 ms. Further, the “time for micro-onset to be complete” value on rNaV1.4 channel is on record as at most 10 ms.
